Sequences of proteins named here, by UniProt entry; tags and fusion partners are left off. A line that says so, or that is headed by a name, gives the form on record, which may keep a tag or linker.
UniProt P10636, other isoform, or with tags, fused parts or gaps limits assumed: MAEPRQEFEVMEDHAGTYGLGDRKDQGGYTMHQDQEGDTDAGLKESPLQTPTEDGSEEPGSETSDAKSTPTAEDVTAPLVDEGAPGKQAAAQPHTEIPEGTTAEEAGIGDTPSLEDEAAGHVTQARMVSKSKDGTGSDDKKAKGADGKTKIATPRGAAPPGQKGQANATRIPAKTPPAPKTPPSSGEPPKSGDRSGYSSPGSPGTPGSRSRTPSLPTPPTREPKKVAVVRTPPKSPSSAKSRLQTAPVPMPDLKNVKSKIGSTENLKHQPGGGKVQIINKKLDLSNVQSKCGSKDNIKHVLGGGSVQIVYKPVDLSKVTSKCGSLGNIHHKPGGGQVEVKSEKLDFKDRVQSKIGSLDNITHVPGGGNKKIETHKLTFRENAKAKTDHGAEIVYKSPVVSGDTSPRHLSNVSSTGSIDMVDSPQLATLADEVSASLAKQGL

According to patent US20230137562A1, “TAU AGGREGATION INHIBITORS” (priority 2017, published 2023):

Experiments:
Ac-VQIINK-NH2 = target: T1, Ac-VQIINK-NH2 (N-terminal acetyl (Ac-); C-terminal amide (-NH2)); test: cell-based or functional assay
T1 peptide: VQIINK

His-Tau40P301L Tau = His-Tau40P301L Tau (UniProt P10636-8 1-441); test: cell-based or functional assay

IC50 (µM), VQIINK Inhibition (ThT) (Ac-VQIINK-NH2): 3.22 µM | IC50 (µM), Tau40 assay (ThT) (His-Tau40P301L Tau): 0.69 µM
Binder: LRIRLRL
